For series [1] the following is noted: STZ-diabetic male rats, mean ± SD.
The conditions of series [2]: diabetic rats, 14 days daily oral.
The conditions of series [3]: terms of European Pharmacopeia 7.0 section 5.11.
Setting [4] is: before first TI/RI administration.

Like-named read-outs stand apart in the source and are kept apart here.

With `CN(C)C(=N)NC(=N)N.C[C@H](N)C(=O)O` [Metformin alaninate, metformin alaninate], the “Absolute body weight, Day −2 (distribution of groups)” value in series [1] (setting [4]) stood at 219.20 ± 4.18 g.
In the case of diphenformin aspartate, the “Absolute body weight, Day −3 (before STZ administration)” value in series [1] (baseline before STZ and before first TI/RI administration) was 219.17 ± 19.71 g. Besides, in series [1] (setting [4]), the “Absolute body weight, Day −1” value is 207.03 ± 1.61 g and the “Absolute body weight, Day −2 (distribution of groups)” value was 212.77 ± 8.22 g. Also, in series [2], the mortality result is given as “sacrificed for humane reasons”.
For the compound metformin lysinate, the “Physical form (hygroscopicity)” value is given as “deliquescent compound” in series [3] and “Deliquescent” in series [3] (listed as 18. LYSINE).

Source of the values: patent publication US11510886B2, “Metformin amino acid compounds and methods of using the same” (Laboratorios Silancs S.A. DE C.V., priority 2016, dated 2022).
